Assay results reported in ChEMBL document CHEMBL1137235, “Bis-pyridiumaldoxime reactivators connected with CH2O(CH2)n OCH2 linkers between pyridinium rings and their reactivity against VX” (2006).

Legend:
[1] = target: T1, Acetylcholinesterase (Rattus norvegicus) (UniProt P37136); test: Reactivation of VX-inhibited AChE in rat brain homogenate at 1000 uM; design: scale not given: the % may be the effect or the level left
T1 sequence (whole entry): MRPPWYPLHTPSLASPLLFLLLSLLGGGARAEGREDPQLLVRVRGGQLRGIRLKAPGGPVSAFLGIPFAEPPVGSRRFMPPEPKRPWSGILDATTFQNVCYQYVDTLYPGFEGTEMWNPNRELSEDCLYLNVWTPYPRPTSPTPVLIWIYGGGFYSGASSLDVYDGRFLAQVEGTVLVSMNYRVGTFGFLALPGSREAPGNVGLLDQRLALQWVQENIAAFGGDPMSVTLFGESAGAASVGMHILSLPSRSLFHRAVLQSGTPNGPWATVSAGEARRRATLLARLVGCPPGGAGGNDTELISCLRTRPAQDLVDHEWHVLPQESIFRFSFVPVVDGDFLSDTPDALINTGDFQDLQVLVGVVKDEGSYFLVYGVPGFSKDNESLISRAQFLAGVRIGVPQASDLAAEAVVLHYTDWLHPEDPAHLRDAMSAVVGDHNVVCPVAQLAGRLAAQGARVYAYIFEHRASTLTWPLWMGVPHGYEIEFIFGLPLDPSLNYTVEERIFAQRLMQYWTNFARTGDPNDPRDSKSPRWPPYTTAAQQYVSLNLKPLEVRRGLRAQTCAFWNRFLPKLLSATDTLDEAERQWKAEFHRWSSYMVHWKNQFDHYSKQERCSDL

[2] = target: T1, Acetylcholinesterase (Rattus norvegicus); test: Reactivation of VX-inhibited AChE in rat brain homogenate at 10 uM; design: scale not given: the % may be the effect or the level left

SMILES: NC(=O)c1cc[n+](COC[n+]2ccccc2/C=N/O)cc1
- Activity [1]: 28%
- Activity [2]: 13%
